Measurements from PMC3401595 (Bioorganic & medicinal chemistry, 2012).

Protein sequences, listed by entry. Tags and fused reporters are not part of them. Lines headed by an entry give the natural chain unless they say otherwise; changes in a name come on top.
UniProt P41145: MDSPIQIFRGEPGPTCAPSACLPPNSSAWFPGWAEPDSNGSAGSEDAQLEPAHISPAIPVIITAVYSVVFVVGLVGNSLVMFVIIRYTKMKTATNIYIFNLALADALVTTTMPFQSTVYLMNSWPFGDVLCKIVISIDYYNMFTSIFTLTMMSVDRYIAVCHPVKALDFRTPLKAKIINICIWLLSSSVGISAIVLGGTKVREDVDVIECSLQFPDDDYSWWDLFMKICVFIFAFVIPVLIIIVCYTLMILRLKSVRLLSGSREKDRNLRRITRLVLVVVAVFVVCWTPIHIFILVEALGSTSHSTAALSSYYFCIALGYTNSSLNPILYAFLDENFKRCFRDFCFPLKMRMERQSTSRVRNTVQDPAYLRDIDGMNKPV

Molecular target: κ opioid receptor (Homo sapiens, UniProt P41145)
Experiment: biochemical

| SMILES | Ki |
| --- | --- |
| CCCCN(CCCC)CCOC/C=C/c1ccccc1 [Compound 17, 2-(Cinnamyloxy)-N,N-dibutylethanamine] | > 10 µM |
| CCCCN(CCCC)CCOCCCc1ccccc1 [Compound 18, N,N-dibutyl-2-(3-phenylpropoxy)ethanamine] | > 10 µM |
| CN(CCOC/C=C/c1ccccc1)Cc1ccccc1 [Compound 33, N-benzyl-2-(cinnamyloxy)-N-methylethanamine] | > 10 µM |
| CN(CCOCCCc1ccccc1)Cc1ccccc1 [Compound 34, N-benzyl-N-methyl-2-(3-phenylpropoxy)ethanamine] | > 10 µM |
| CN(CCOC/C=C/c1ccccc1)CCc1ccccc1 [Compound 35, 2-(Cinnamyloxy)-N-methyl-N-phenethylethanamine] | > 10 µM |
| CN(CCOCCCc1ccccc1)CCc1ccccc1 [Compound 36, N-methyl-N-phenethyl-2-(3-phenylpropoxy)ethanamine] | > 10 µM |
| CN(CCCc1ccccc1)CCOC/C=C/c1ccccc1 [Compound 37, 2-(Cinnamyloxy)-N-methyl-N-phenylpropylethanamine] | > 10 µM |
| CN(CCCc1ccccc1)CCOCCCc1ccccc1 [Compound 38, N-methyl-N-phenylpropyl-2-(3-phenylpropoxy)ethanamine] | > 10 µM |
